These are literature values, as cited in patent publication US20250354049A1, “CORROSION-INHIBITING AGENTS FOR REDUCING DISSOLVED OXYGEN CONCENTRATIONS WITHIN UPSTREAM OILFIELD SYSTEMS” (Finoric LLC, priority 2024, published 2025).

The conditions of the data set: solvents named; cited from earlier work.

As to `O=S([O-])[O-].[Na+].[Na+]` [Sodium Sulfite], the “Solubility in Other Solvents” value is on record as “-Ethanol”.
